One molecule from BindingDB's records for PubMed 10617681 (Dupont Pharmaceuticals, 2000) can be followed below.

The chains behind the UniProt entries cited, without tags or fusion partners. Where a name states a change or a piece, a line headed by the entry shows the natural chain unless it says otherwise.
UniProt P28335: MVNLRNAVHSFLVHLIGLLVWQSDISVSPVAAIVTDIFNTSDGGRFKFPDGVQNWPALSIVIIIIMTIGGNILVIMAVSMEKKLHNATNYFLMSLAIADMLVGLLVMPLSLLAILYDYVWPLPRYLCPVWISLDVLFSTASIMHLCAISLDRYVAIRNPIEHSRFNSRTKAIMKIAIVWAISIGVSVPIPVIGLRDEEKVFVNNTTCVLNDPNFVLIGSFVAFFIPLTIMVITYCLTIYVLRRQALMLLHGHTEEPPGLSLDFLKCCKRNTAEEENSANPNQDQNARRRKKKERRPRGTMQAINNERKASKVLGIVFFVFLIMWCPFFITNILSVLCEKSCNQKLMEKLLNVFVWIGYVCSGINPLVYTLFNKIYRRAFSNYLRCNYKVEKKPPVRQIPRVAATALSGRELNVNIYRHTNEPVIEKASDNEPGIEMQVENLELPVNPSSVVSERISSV

This assay concerns the target 5-hydroxytryptamine receptor 2C (Homo sapiens, UniProt P28335).

For the molecule `CCN[C@H](C)Cc1cccc(C(F)(F)F)c1` [NSC_65801], the Ki (commonly a dissociation constant, usually derived from enzyme kinetics or from competition with a known ligand) came out at 1620 nM.
